Target: deleted in colorectal cancer (DCC)
Test: cell-based or functional assay

- ERK1/2 phosphorylation in BAECs, 15 minutes (Western blot densitometry): 2.52 fold
- eNOSs1179 phosphorylation in BAECs, 30 minutes (Western blot densitometry): 1.7 fold
- eNOSs1179 phosphorylation in BAECs, 60 minutes (Western blot densitometry): 1.88 fold
Substance: Purified mouse netrin-1 (from UniProt O09118 25-604) (ligand)

From patent publication US20170210780A1
